Data published in ChEMBL document CHEMBL4308846, “How Selective Are Pharmacological Inhibitors of Cell-Cycle-Regulating Cyclin-Dependent Kinases?” (J Med Chem, 2018).

Amino acid sequences for entries named in this document (tags omitted).
UniProt P50750, whole entry: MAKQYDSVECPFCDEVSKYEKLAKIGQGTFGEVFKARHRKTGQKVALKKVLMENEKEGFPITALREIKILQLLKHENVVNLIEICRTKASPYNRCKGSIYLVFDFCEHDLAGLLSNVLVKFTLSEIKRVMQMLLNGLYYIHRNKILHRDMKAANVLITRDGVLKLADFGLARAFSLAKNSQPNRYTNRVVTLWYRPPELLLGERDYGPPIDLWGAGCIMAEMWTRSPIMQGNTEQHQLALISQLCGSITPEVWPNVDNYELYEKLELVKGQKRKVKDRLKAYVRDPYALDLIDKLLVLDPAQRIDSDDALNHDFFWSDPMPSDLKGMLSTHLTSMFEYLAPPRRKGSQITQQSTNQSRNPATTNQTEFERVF

Target: CDK9/cyclin T1 (Homo sapiens, UniProt P50750)
Assay: biochemical

OCCCNc1cc(-c2ccnc(Nc3cccc(Cl)c3)n2)ccn1
pIC50: 7.89

pIC50: −log10 of the molar value.
